Our source for the Ki values is patent US7807702B2 (Eli Lilly and Company, priority 2005, dated 2010).

Sequences of proteins named here, by UniProt entry; tags and fusion partners are left off. Residues count along the entry.
UniProt P47871, 26-477 limits assumed: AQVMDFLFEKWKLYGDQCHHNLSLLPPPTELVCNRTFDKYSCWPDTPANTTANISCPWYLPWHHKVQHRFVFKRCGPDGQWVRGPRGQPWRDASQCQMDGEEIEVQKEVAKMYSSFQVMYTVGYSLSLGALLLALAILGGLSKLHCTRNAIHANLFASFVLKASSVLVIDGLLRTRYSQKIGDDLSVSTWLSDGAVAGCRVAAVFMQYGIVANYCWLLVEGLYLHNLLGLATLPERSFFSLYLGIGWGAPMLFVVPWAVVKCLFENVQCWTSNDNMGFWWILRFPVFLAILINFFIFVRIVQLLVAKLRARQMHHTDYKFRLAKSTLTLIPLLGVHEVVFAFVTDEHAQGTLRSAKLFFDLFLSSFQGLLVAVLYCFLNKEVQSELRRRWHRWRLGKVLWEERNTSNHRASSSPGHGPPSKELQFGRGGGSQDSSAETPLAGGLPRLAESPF

This experiment addresses cloned human glucagon receptor (Homo sapiens, UniProt P47871). As to the kind of experiment: Glucagon Receptor (hGlucR) Binding Assay. As to conditions: SPA with I-125 glucagon, 293HEK membranes.

The term Ki denotes the dissociation constant of the complex between target and ligand, obtained from inhibition or displacement. High values mean a looser hold on the target, low ones a stronger hold on the target.

`CCC(Sc1cc(C)c(-c2ccc(C(C)(C)C)cc2)c(C)c1)c1ccc(C(=O)NCc2nn[nH]n2)s1` (single isomer, unassigned) returned an inhibition constant (Ki) of 18.4 nM. In other words, the double-digit nanomolar range.
